# Assay results reported in ChEMBL document CHEMBL3886551, “Oligomer-opioid agonist conjugates” (2016).
# Amino acid sequences for entries named in this document (tags omitted). A change or cut given only in a name is not applied to a line headed by its entry.
# UniProt P41145: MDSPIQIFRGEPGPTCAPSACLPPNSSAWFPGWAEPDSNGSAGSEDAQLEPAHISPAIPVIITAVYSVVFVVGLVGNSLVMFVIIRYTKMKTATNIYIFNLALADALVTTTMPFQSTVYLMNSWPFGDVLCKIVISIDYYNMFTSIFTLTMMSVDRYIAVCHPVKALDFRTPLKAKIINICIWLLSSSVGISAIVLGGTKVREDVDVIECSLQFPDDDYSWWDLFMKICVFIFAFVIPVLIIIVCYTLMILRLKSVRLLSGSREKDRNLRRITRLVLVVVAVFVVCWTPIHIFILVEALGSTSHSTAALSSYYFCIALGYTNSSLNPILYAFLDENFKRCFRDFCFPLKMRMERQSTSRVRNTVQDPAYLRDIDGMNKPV
# UniProt P41143, whole entry: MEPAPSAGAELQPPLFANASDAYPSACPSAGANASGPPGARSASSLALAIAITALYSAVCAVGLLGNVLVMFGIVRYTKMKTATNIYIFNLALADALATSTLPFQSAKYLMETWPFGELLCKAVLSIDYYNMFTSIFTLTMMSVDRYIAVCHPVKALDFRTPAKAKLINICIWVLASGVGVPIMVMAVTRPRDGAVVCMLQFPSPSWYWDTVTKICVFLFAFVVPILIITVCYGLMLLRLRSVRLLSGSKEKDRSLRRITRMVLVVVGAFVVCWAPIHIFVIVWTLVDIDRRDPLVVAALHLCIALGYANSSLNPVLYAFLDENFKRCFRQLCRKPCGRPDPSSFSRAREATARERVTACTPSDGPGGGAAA
# UniProt P35372, whole entry: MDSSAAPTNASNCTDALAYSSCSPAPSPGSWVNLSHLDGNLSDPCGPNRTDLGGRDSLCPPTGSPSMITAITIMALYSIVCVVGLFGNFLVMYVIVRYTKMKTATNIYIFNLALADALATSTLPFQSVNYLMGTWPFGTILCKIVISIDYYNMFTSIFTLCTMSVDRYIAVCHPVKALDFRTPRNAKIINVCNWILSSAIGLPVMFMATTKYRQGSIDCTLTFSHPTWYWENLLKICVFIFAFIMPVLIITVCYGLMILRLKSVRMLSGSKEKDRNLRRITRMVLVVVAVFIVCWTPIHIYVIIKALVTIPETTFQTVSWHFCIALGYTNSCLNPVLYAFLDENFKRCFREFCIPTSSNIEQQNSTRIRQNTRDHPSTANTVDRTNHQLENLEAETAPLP
# Key:
# [1] = target: Kappa-type opioid receptor (Homo sapiens, UniProt P41145)
# [2] = target: T1, Delta-type opioid receptor (Homo sapiens, UniProt P41143); test: GTPyS binding assay: Test compound and/or vehicle was preincubated with the cell membranes and 3 uM GDP in modified HEPES buffer (pH 7.4) for 20 minutes, followed by addition of SPA beads for another 60 minutes at 30° C. The reaction is initiated by 0.3 nM [35S]GTP gamma S for an additional 30 minutes incubation period.
# [3] = target: T1, Delta-type opioid receptor; test: Binding of PEG-Nalbuphine assays: Specific binding is determined by subtraction of the cpm bound in the presence of 50-100× excess of cold ligand. Binding data assays were analyzed using GraphPad Prism 4.0 and IC50 is generated by non-linear regression from dose-response curves. Ki values were calculated using the Cheng Prusoff equation using the Kd values from saturation isotherms as follows: Ki=IC50/(1+[Ligand]/Kd).
# Mu-type opioid receptor = Mu-type opioid receptor (Homo sapiens, UniProt P35372)
smiles,measurement,setting,value
COCCOCCOCCOCCOCCOCCOCCOCCOCCO[C@H]1CC[C@@]2(O)[C@H]3Cc4ccc(O)c5c4[C@@]2(CCN3CC2CCC2)C1O5 (some centres undefined),EC50,[1],485 nM
same,IC50,[2],8.97 µM
same,Ki,[3],158 nM
same,IC50,Mu-type opioid receptor,1010 nM
